Experimental data reported in patent publication US6376510B1, “Neuromuscular relaxants” (Newlaxant LLC, priority 1997, dated 2002).

Tested on: anesthetized rats (evoked responses of anterior tibial muscle)
Experiment: Muscle relaxant (neuromuscular blocking) properties, anesthetized rat (Example 9, Table 9)
Details: at 80-85% neuromuscular blocking dose
Text: The data on muscle relaxant action were obtained on anesthetized rats, and when indicated, also on juvenile pigs
Adult, male albino rats were anesthetized with pentobarbital injected intraperitoneally. Juvenile, Duroc pigs 9-12 kg body weight were anesthetized with Chloralose Nembutal sodium mixture intraperitoneally after deep sedation with inhaled halothane. The trachea was cannulated for artificial respiration via a small animal respirator. The carotid artery was cannulated for recording blood pressure via a transducer and heart rate by a cardiotachograph on a polygraph. One external jugular vein was cannulated for i.v. drug administration. Neuromuscular function was monitored by electromyography, recording evoked responses from the anterior tibial muscle as a result of supramaximal nerve stimuli consisting of single or “train-of-four” rectangular pulses of 0.1-0.2 msec duration every 10-12 seconds, delivered to the sciatic or common peroneal nerve by a laboratory nerve stimulator. Another mode of stimulation included repeated single stimuli delivered at 0.1 Hz or 1 Hz. […] The agents were dissolved in physiologic saline and injected intravenously at appropriate time intervals. The intensity, onset, and duration of neuromuscular block and its type were determined with each agent. Through administering several doses, the doses corresponding to 50%, 80% and 90% neuromuscular block were determined. All agents were compared with selected standard neuromuscular blocking compounds, e.g., rocuronium.
Onset=time in minutes to 80-85% neuromuscular block.
RI=recovery index, minutes, spontaneous recovery, 25-75% neuromuscular response.
VB=vagal block, %, at 80-85% neuromuscular blocking dose.
HR=change in heart rate, %, at 80-85% neuromuscular blocking dose.
BP=change in arterial blood pressure, %, at 80-85% neuromuscular blocking dose.

“Bis[4-dimethylaminocyclohexyl]glutarate bis(benzyl bromide) [reference compound]” was tested. Which “% VB at ED80 nmb (vagal block)” value did it give?
The value was 100%.

What about the “BP (change in arterial blood pressure)” value of the same substance?
Its value is −15 (5) %.

And the “HR (change in heart rate)” value?
The value was 0%.
